# scFv variants of Ab-95 (light chain) against a SARS-CoV-2 spike peptide

Target: peptide PDVDLGDISGINAS, taken from heptad repeat 2 (HR2) of SARS-CoV-2 spike.

The variants keep the heavy chain, the linker and the frameworks of Ab-95 (scFv order VH, three GGGGS repeats, VL).
VH: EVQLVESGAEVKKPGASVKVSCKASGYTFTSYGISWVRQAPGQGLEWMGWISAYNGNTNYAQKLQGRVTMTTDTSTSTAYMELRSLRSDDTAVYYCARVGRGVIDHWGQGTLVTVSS
VL: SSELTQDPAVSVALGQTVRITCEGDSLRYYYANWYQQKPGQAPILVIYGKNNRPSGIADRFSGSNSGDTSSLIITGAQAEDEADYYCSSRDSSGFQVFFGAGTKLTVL

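The parent was found by panning a naive human phage display library on the peptide. Variants in AAYL52 differ from the parent at up to three CDR positions; double and triple changes were sampled at random. The assay is AlphaSeq: two haploid yeast populations carry antibody and antigen on their surface. The frequency of each diploid, read from paired DNA barcodes, reflects how well the two displayed proteins bind. Scores were corrected for input abundance and mapped to Kd with protein pairs of known affinity run in the same pool. There are three technical replicates.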

The parent's light chain CDRs are EGDSLRYYYAN, GKNNRPS, SSRDSSGFQVF; each variant's own CDRs replace them letter for letter. Numbers give log10(Kd / nM), so 0 is 1 nM and 3 is 1 µM. Smaller is tighter. A pair that was not seen in that replicate is written "nd"; this usually means weak binding, but a binder can also be missed.

The variant EGDYLRYYYAG, GKNNRPS, SSRDSSGFQDF showed 3.78, nd, nd (controls 2 of 9).
The variant FGDSLRYFYAN, RKNNRPS, SSRDSSGFQVF showed nd, 4.88, nd (controls 5 of 9).
The variant EGDSLRYGYAN, GKNNRPS, SSYDSSGFQVF showed 1.11, 0.86, 0.16 (controls 4 of 9).
The variant EGDALRYWYAN, GKNNRPS, SSRDSSGFYVF showed 2.58, 2.27, 2.62 (controls 7 of 9).
The variant EGDSLRYYYAW, GKNNPPS, SSRDSSGMQVF showed 3.61, 3.91, nd (controls 3 of 9).
The variant EGDSLRYYYAN, GANNRPS, SSRLSRGFQVF showed nd, nd, nd (controls 2 of 9).
The variant EGDSLIYYYRN, GKNNRPS, WSRDSSGFQVF showed nd, 4.95, nd (controls 3 of 9).
The variant EGDSLRYNYAN, GKNNRNG, SSRDSSGFQVF showed 0.84, 0.76, 0.07 (controls 6 of 9).
The variant EGDSLRYCYAN, GKNNRPS, SSADWSGFQVF showed 2.59, 2.42, 3.09 (controls 1 of 9).
The variant EGDSLRYYYAN, GKNNRPS, SSLTSTGFQVF showed 3.38, 3.49, 3.55 (controls 5 of 9).
The variant EGDSLRYYYAN, GKYARPS, SSRDSSGFQWF showed nd, nd, nd (controls 2 of 9).
The variant EGDSLRYYYAN, AKNNRPS, SSIDSNGFQVF showed 3.55, nd, nd (controls 4 of 9).
The variant EGDSLPYYYAN, GKNNRMS, SSRDSSGFQVF showed 2.08, 3.26, 2.01 (controls 1 of 9).
The variant EWGSLRYYYAN, GKNNRPA, SSRDSSGFQVF showed nd, nd, nd (controls 1 of 9).
The variant EGDSLRYYYLN, GKNNYPS, WSRDSSGFQVF showed nd, nd, nd (controls 1 of 9).
The variant EGDSLRYYYAN, GKNWRPS, SSYDASGFQVF showed nd, nd, nd (controls 0 of 9).
The variant EGDTLRYYYAN, GKNNRPS, SSRDSEGEQVF showed nd, nd, nd (controls 1 of 9).
The variant EGDSLRYYYAN, SKNNRPS, SSRDSSGFSVF showed 2.79, 3.69, 2.87 (controls 7 of 9).
The variant AGDSLRYYYAN, GKNNRLS, SIRDSSGFQVF showed 2.99, nd, nd (controls 2 of 9).
The variant EGDSLRITYAN, GKNNRPS, SSRDSSWFQVF showed nd, nd, nd (controls 2 of 9).
The variant EGDSLRYYYAN, GKGNRPS, SSRDCSRFQVF showed 3.23, 2.94, 2.81 (controls 4 of 9).
The variant EGDSQRYYYAN, GWNNRPS, SSRDSSGFAVF showed nd, nd, nd (controls 2 of 9).
The variant EGVSLRYYYAN, GKNNRPS, SSRYSSGFYVF showed nd, 3.25, nd (controls 3 of 9).
The variant EGDSLLYYYAN, GKNNRPS, SSRDSSWFQVF showed nd, nd, nd (controls 0 of 9).
The variant EGDSLRMYYAN, GKNNVPS, SSCDSSGFQVF showed 3.61, 4.92, 3.69 (controls 7 of 9).
The variant EGDSLRYYYAN, AKNNRPN, SSRDSAGFQVF showed 2.16, 2.98, 2.65 (controls 2 of 9).
The variant EGDSLRYYYAN, GKNNRFS, SSRDFSGFQVE showed 3.41, 2.71, nd (controls 6 of 9).
The variant EGDSLRYYYAN, GHNNRPY, SSRDSSIFQVF showed 3.01, 2.33, 2.25 (controls 1 of 9).
The variant EGDSLRYYYAN, GKNNRYS, SSRDASGFQVM showed 3.68, 3.01, 3.35 (controls 4 of 9).
The variant PLDSLWYYYAN, GKNNRPS, SSRDSSGFQVF showed 2.30, 2.47, 1.51 (controls 3 of 9).
The variant EGDSLRYYYNN, GKNNTPS, SSRISSGFQVF showed 3.32, nd, nd (controls 2 of 9).
The variant EGDSLQPYYAN, GWNNRPS, SSRDSSGFQVF showed 3.29, 2.91, 3.40 (controls 5 of 9).
The variant EGDGLRYYYAN, GKNNRPS, SSRASSGFQVF showed 2.19, 2.53, 3.08 (controls 2 of 9).
The variant EGDSLKMYYAN, GKNTRPS, SSRDSSGFQVF showed 2.47, 2.47, 2.14 (controls 1 of 9).

Extract of 4 entries:

EGDSLRYYYAN, AKNNRPS, SSIDSNGFQVF: 3.55, nd, nd (controls 4 of 9).
EGDSLRYYYAW, GKNNPPS, SSRDSSGMQVF: 3.61, 3.91, nd (controls 3 of 9).
EGDSLRYYYAN, GKNNRPS, SSLTSTGFQVF: 3.38, 3.49, 3.55 (controls 5 of 9).
EGDSQRYYYAN, GWNNRPS, SSRDSSGFAVF: nd, nd, nd (controls 2 of 9).

In this assay the parent's reference entry averaged 2.31; its copy inside this library read 2.25. Empty control strains, which show no peptide, gave a signal in 28% of pairings with library AAYL52; the median was 3.91 and 95% of these signals were weaker than 2.90. No background was subtracted. For each scFv, signals with the empty controls are counted beside the result.

The measurements come from Engelhart et al. 2022 (doi:10.1038/s41597-022-01779-4) through the FLAb antibody collection.